Measured values as given in patent US20100221345A1, “OSTEOGENIC BIOMATERIAL CONTAINING OSTEOGENESIS PROMOTING SUBSTANCE AND NANOGEL” (NATIONAL UNIVERSITY CORPORATION TOKYO MEDICAL AND, priority 2006, published 2010).

System: MC3T3-E1 cells
Assay: Release of BMP-2 from CHP: ALP activity in osteoblast-like cells
Assay type: cell-based
Settings: MC3T3-E1 cells treated with rhBMP-2 or BMP/CHP
Description: Finally, in order to investigate the release of BMP-2 from CHP, MC3T3-E1 cells, which were osteoblast-like strains, were treated with rhBMP-2 and BMP/CHP to compare their ALP activities.

B1: rhBMP-2: bone morphogenetic protein, molecule which induces heterotopic osteogenesis (protein, UniProt P12643 283-396, looked up)
Bone morphogenetic protein 2: QAKHKQRKRLKSSCKRHPLYVDFSDVGWNDWIVAPPGYHAFYCHGECPFPLADHLNSTNHAIVQTLVNSVNSKIPKACCVPTELSAISMLYLDENEKVVLKNYQDMVVEGCGCR
  ALP activity: increase in ALP activity in a BMP dose-dependent manner
